Among the data in PubChem BioAssay AID651568 (National Center for Advancing Translational Sciences (NCATS), 2012) are activity change, negative = inhibition values, retold here.

Each structure is given as a SMILES string. The list shows a part of the results, in another mix than the full data. Results filed as inconclusive are left out. The source made the active and inactive calls. The call rests on the fitted dose curve; in most records, active means well fitted inhibition curve with a large enough effect; inconclusive means small, poorly fitted or top-dose-only effect; inactive means no such curve, though single readings can be large or run the other way.
On the % scale 0 is the no-effect control and ±100 the full control effect.

This assay is described as follows: qHTS Assay to Find Inhibitors of Chronic Active B-Cell Receptor Signaling: Hit Validation in Renilla Reporter Assay. Further: nearly all actives have a fitted effect of over 70% in size. Particulars: TMD8 IkB-Renilla luciferase reporter, NF-kB signaling; at 57.5 µM (top of the series). The source says: Diffuse large B-cell lymphoma (DLBCL) is the most common category of non-Hodgkin lymphoma, with ~20,000 new cases per year in the United States. DLBCL should be regarded as a collection of different neoplasms. Microarray gene expression analysis has defined two principal types of DLBCL, named for their similarity to normal B cell stages or activation states: a germinal center B-cell (GCB) type, and an activated B-cell (ABC) type. In ABC-DLBCL, a constitutive high-level activity of the NF-kappaB family of transcription factors has been observed (1) and NF-kappaB target genes are more highly expressed in ABC primary tumors than in GCB tumors. Functional studies have shown a constitutive high-level activity of the IkappaB (inhibitor of kappa-B) kinase (IKK) complex. […] Further analysis of DLBCL primary tumors for NF-kappaB target gene expression imply that although CARD11 is required for constitutive IKK activity in all ABC-DLBCL lines, mutations in CARD11 may be the root cause of IKK activation only in lines or tumors with such mutations. In other words, CARD11 mutations may explain NF-kappaB activation in only 10% of ABC-DLBCL cases. […] This process has been termed 'chronic active BCR signaling' (CABS). […]
On the technique in general: qHTS replaces the single test concentration by a dilution series.
Regarding `COc1ccc(C2=NCC(CBr)S2)cc1` (stereo unspecified), the activity change, negative = inhibition is inactive: 10.3%.
